# Biological target: 229E mPRO (Human coronavirus 229E (HCoV-229E), UniProt P0C6X1)
# Chains of the proteins cited; added tags and fusions are not shown. Residues count along the entry.
# UniProt P0C6X1, 2966-3267 limits assumed: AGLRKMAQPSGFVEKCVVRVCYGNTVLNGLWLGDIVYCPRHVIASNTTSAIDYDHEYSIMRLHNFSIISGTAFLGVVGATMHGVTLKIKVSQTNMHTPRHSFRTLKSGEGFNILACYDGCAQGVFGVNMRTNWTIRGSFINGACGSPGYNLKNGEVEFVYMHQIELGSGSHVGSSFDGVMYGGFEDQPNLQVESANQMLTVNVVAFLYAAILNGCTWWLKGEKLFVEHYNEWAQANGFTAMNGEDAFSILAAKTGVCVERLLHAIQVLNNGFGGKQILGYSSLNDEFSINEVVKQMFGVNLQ
# Test: 229E mPRO enzymatic assay
# Assay type: biochemical, Human Coronavirus (HCov) 229E
compound,measurement,value
"N#C[C@H](C[C@@H]1CCNC1=O)NC(=O)[C@H](CC1CC1)NC(=O)c1nc2ccncc2[nH]1 [Compound 129, N-[(1S)-2-[[(1S)-1-cyano-2-[(3S)-2-oxopyrrolidin-3-yl]ethyl]amino]-1-(cyclopropylmethyl)-2-oxo-ethyl]-3H-imidazo[4,5-c]pyridine-2-carboxamide]",IC50,2 to 10 µM

# Reference: patent US11124497B1, “Inhibitors of cysteine proteases and methods of use thereof” (priority 2020, dated 2021)
